Assay results from patent publication US11286414B2, “Sodium nitroprusside and nitrate metabolic inhibition of sulfate-reducing microbes to control sulfide production” (UTI Limited Partnership, priority 2017, dated 2022).

Assays:
[1] = system: SRB; experiment: SNP kill of SRB (most probable numbers)
Description: (§1) An actively growing anaerobic culture of SRB, which also contained APB, was obtained from a continuous culture in CSBK medium with 4 mM lactate and 2 mM sulfate. Subcultures (10 ml) were transferred with a syringe to duplicate 60 ml serum bottles closed with butyl rubber stoppers and an N2—CO2 headspace. SNP was added to 0.5 mM (149 ppm). Controls without SNP were kept under the same conditions. After 10 min, 1 h and 24 h of exposure to SNP, aliquots (100 μl) of the cultures were serially diluted in triplicate in 48-well microtiter plates containing Postgate medium B (900 μl). Postgate medium B contains (g/L): KH2PO4 (0.5), NH4Cl (1.0), CaSO4 (1.0), MgSO4.7H2O (2.0), sodium lactate (4.0:60% w/w), yeast extract (1.0), ascorbic acid (0.1), thioglycolate (0.1), FeSO4.7H2O (0.5). APB were enumerated by growing triplicates of the serially diluted samples on phenol red broth (Difco, BD). The samples were incubated anaerobically for 3 weeks at 30° C. in the hood. […] Most probable numbers (MPNs) were derived from the data using appropriate statistical tables (Shen and Voordouw, 2015).

[2] = system: APB; experiment: SNP kill of acid producing bacteria (most probable numbers)
Description: as §1

Na2[Fe(CN)5NO].2H2O
killing of SRB (MPN decrease) ([1]; 0.5 mM (149 ppm) SNP, 1 h): 10^9 fold | MPN decrease of SRB ([1]; 0.5 mM (149 ppm) SNP, 24 h, below the detection limit): 10^9 fold | relative killing of SRB and APB ([1]; 0.5 mM SNP): kills SRB more effectively than APB | killing of SRB (MPN decrease) ([1]; 0.5 mM SNP, within 10 min): about 10^3 fold | killing of APB (MPN decrease) ([2]; 0.5 mM (149 ppm) SNP, 1 h): 10^7 fold | killing of APB (MPN decrease) ([2]; 0.5 mM SNP, within 10 min): about 10^3 fold

This is a selection: effects in other tests are not listed, and their absence says nothing.
